# Measurements published in PubChem BioAssay AID624464 (National Center for Advancing Translational Sciences (NCATS), 2012).
# The chains behind the UniProt entries cited, without tags or fusion partners.
# UniProt P14416, whole entry: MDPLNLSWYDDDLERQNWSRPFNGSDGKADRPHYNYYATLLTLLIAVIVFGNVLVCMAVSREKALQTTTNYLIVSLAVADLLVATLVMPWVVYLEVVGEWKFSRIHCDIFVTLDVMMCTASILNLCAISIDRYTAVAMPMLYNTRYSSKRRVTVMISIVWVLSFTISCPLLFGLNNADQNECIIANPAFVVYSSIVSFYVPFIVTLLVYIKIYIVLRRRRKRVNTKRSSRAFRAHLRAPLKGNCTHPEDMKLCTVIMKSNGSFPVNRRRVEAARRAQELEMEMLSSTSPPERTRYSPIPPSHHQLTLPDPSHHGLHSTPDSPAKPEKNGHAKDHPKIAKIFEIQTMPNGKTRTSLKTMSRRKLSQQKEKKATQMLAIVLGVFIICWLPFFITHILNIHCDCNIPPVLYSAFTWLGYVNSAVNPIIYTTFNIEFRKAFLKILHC
# The list shows a part of the results, in another mix than the full data. Calls of active or inactive are those of the source. Rule as the data show it: active = potentiation above about 50%; inconclusive = mostly about 30% to 49%; inactive = weaker than that.
# Target: D(2) dopamine receptor (Homo sapiens) (UniProt P14416)
# Assay: Beta-Arrestin HTS for Positive Allosteric Modulators of the Human D2 Dopamine Receptor: Potentiators
# Settings: DiscoveRx D2 beta-arrestin cells, luminescence, 90 min; hits give high values; 100% = 57 uM dopamine signal
# From the text: There is great interest in identifying small molecule ligands for G-protein coupled receptors (GPCRs) as nearly 50% of all FDA-approved drugs target these important receptor proteins. […] Amongst the dopamine receptors (DARs), the D2 is arguably one of the most validated drug targets in neurology and psychiatry. For instance, all receptor-based antiparkinsonian drugs primarily work via stimulating the D2 DAR, whereas all FDA-approved antipsychotic agents are antagonists of this receptor. The D2 DAR is also therapeutically targeted in other disorders such as restless legs syndrome, tardive dyskinesia, Tourette's syndrome, and hyperprolactinemia.
# To this end, a miniaturized qHTS screen was developed to be screened against the Molecular Libraries Small Molecule Repository (MLSMR). This assay seeks to identify potentiators against the D2 DAR.
# NIH Molecular Libraries Probe Production Network [MLPCN]
# NIH Chemical Genomics Center [NCGC]
# PI Name: David Sibley, National Institutes of Neurological Disorders and Stroke
# DiscoveRx D2 cells were thawed from frozen stock and seeded at 2,100 cells/ 3 uL/well media (DiscoveRx Plating Reagent 2) with MultiDrop Combi dispenser (Thermo Scientific, Logan, UT) onto white tissue culture treated 1536-well Aurora plates (Brooks Automation, Chelmsford, MA) and allowed to attach overnight at 37 deg C, 5% CO2. Next, 23 nL/well of compound solutions in DMSO were added with a pintool transfer (Kalypsis, San Diego, CA). As the positive control, 1 uL/well dopamine (EC100, 57 uM final concentration) diluted in buffer (HBSS + 10 mM HEPES + SMB + 0.1 %Tween-20) was dispensed to 1 column of each plate. EC20 (Dopamine at 50 nM final concentration) was dispensed to the rest of the plate except columns 1 &2 which were used as negative control (EC=0, buffer only), 1 uL/well as well. The cells were stimulated by compounds and dopamine for 90 minutes at 37 deg C, 5% CO2, after which 1.5 uL/well of DiscoveRx detection reagent was added with BioRAPTR FRD dispenser. The detection reagent was prepared by mixing of Galacton Star Substrate, Emerald II solution and PathHunter buffer (supplied by the assay kit) together at 1:5:19 proportion accordingly just prior to dispensing. The plates were incubated at ambient temperature for 1 hour and then the luminescent signal was read on ViewLux plate reader (PerkinElmer, Waltham, MA).
row,Compound,potentiation
1,CN(C)CCOC(=O)C(O)(c1ccccc1)C1CCCCC1 (centres undefined),inactive: -14.7%
2,C[C@H]1OP(=O)(Oc2ccccc2)[C@H](O)[C@H](O)[C@H]1N=[N+]=[N-] (some centres undefined),inactive: -4.1%
3,O=[As](O)(c1ccccc1)c1ccc(O)cc1,inactive: -2.21%
4,Cc1cc(-c2cccc3ccccc23)c(C)cn1.O=[N+]([O-])c1cc([N+](=O)[O-])c(O)c([N+](=O)[O-])c1,inactive: -18.5%
5,O=[N+]([O-])c1ncn(CCn2cnc([N+](=O)[O-])n2)n1,inactive: 3.45%
6,CC(=O)NC(SC(=S)N(C)C)C(Cl)(Cl)Cl (centres undefined),inactive: -11.2%
7,O=[N+]([O-])c1ccc(OP2(=O)COCCO2)cc1 (centres undefined),inactive: -3.49%
8,O=[N+]([O-])c1ccc(O)c(/C=N/Nc2ccc([N+](=O)[O-])cc2[N+](=O)[O-])c1,inactive: 7.6%
9,O=C(OC1CN2CCC1CC2)c1cccc(Cl)c1 (centres undefined),inactive: -15.4%
10,Cc1c(C(c2ccc3c(c2)OCO3)c2c(C)n(C)n(-c3ccccc3)c2=O)c(=O)n(-c2ccccc2)n1C.O=[N+]([O-])c1cc([N+](=O)[O-])c(O)c([N+](=O)[O-])c1,inactive: -2.91%
11,C(Cc1nn[nH]n1)Cc1nn[nH]n1,inactive: -13%
12,Nc1ccc([As](=O)(O)c2ccc([N+](=O)[O-])cc2)cc1,inactive: -0.672%
13,O=P1(N(CCCl)CCCl)OCCCS1 (centres undefined),inactive: -4.07%
14,Nc1ccc2c(ccc3cccnc32)n1.O=[N+]([O-])c1cc([N+](=O)[O-])c(O)c([N+](=O)[O-])c1,inactive: -15%
15,CP(=O)(OC12CC3CC(CC(C3)C1)C2)OC12CC3CC(CC(C3)C1)C2,inactive: -4.02%
16,CCOC(=O)c1ccc(NP(C)(=O)Oc2ccc(Cl)cc2)cc1 (centres undefined),inactive: -4.81%
17,O=C(Nc1cc([As](=O)(O)O)ccc1O)c1ccccc1,inactive: 8.79%
18,O=[N+]([O-])c1ncn(CCn2ncnc2[N+](=O)[O-])n1,inactive: 1.51%
19,CC(C)(C)C(=O)NC(Sc1ccncn1)C(Cl)(Cl)Cl (centres undefined),inactive: -5.75%
20,O=C(O)CNc1ccc([As](=O)(O)O)cc1,inactive: -19.6%
21,COC(=O)C1(C)COP(=O)(Nc2ccccc2)OC1 (centres undefined),inactive: -9.6%
22,O=[N+]([O-])c1cccc(NC2=NCC(CBr)S2)c1 (centres undefined),inactive: -18.2%
23,CCN(CC)CC(O)COC(=O)C(O)(c1ccccc1)C1CCCCC1 (centres undefined),inactive: -14.2%
24,COc1ccc(OP(C)(=O)Nc2ccc(Br)cc2)cc1 (centres undefined),inactive: -21.1%
25,COc1ccc(C2=NCC(CBr)S2)cc1 (centres undefined),inactive: -11%

row,Compound,potentiation
1,CP(=O)(Oc1ccccc1)N1CCOC1=O (centres undefined),inactive: 1.45%
2,Cc1ccc(NP(=O)(Oc2ccccc2)Oc2ccccc2)nc1,inactive: -2.01%
3,CC(=O)N1C2C3N(C(C)=O)C1C1N(C(C)=O)C(C(N1C(C)=O)N3C(C)=O)N2C(C)=O,inactive: -21.9%
4,O=[N+]([O-])c1cccc2n[nH]nc12,inactive: -7.24%
5,COc1ccccc1OP(C)(=O)Nc1c(C)n(C)n(-c2ccccc2)c1=O (centres undefined),inactive: 0.424%
6,O=C(OCCCN1CCCC1)C(O)(c1ccccc1)C1CCCCC1 (centres undefined),inactive: -33.1%
7,CCN(/C(=N/P(=O)(N1CCOCC1)N1CCOCC1)N1CCOCC1)c1ccc(OC)cc1,inactive: -15.9%
8,CP(=O)(Nc1ccc(Cl)cc1)Oc1ccc(F)cc1 (centres undefined),inactive: -4.41%
9,COc1ccccc1OP(C)(=O)Nc1ccccc1Br (centres undefined),inactive: -7.83%
10,Nc1ccc([As](=O)(O)c2ccc(N)cc2)cc1,inactive: -4.58%
11,CC(C)(C)c1ccc(OP(C)(=O)O)cc1,inactive: -6.89%
12,CC1CCN(C(=O)Oc2c(Cl)cc(Cl)c3cccnc23)CC1,inactive: -4.13%
13,c1cc(-c2nn[nH]n2)ccc1-c1nn[nH]n1,inactive: -12.8%
14,CC(C)c1nc(Nc2ccccc2)n(P(=O)(N(C)C)N(C)C)n1,inactive: -6.42%
15,CC(C)=N/N=C(\N)N[N+](=O)[O-],inactive: -4.16%
16,CN(C)C(=O)c1c([N+](=O)[O-])cc([N+](=O)[O-])cc1[N+](=O)[O-],inactive: -27.1%
17,CN(C)C(=O)OCCc1n(C)cc[n+]1C,inactive: -9.02%
18,CN(C(=O)Cc1ccc(Cl)c(Cl)c1)[C@H]1CCCC[C@H]1N1CCCC1,inactive: -20.9%
19,COc1ccccc1OP(C)(=O)Nc1ccc(Br)cc1 (centres undefined),inactive: -3.01%
20,Cc1ccc(N/C(=N/P(=O)(N2CCOCC2)N2CCOCC2)N2CCOCC2)cc1,inactive: -4.38%
21,NC(=O)c1cc([N+](=O)[O-])cc([N+](=O)[O-])c1N,inactive: -2.3%
22,CN1CCCC(OC(=O)C(c2ccccc2)c2ccccc2)C1 (centres undefined),inactive: -32.2%
23,CN(C)CCOC(=O)C(O)(c1ccccc1)C1CCCC1 (centres undefined),inactive: -25.2%
24,Clc1ccc(Cl)c(NC2=NCC(CBr)S2)c1 (centres undefined),inactive: -5.39%
